Laboratory results taken from patent US11229625B2, “Titration of Cebranopadol” (dated 2022).
Where two headings read alike, the source gives them in different places.

Experiments:
[1] = test system: CNS and the respiratory system; settings: cited from earlier work
[2] = clinical trials of Cebranopadol, treatment emergent adverse events
[3] = population pharmacokinetic-pharmacodynamic model of clinical data, Low Back pain population; settings: daily dose of 100 μg, FIG. 1
[4] = test system: rat models of acute and chronic pain; settings: cited from earlier work

CN(C)[C@]1(c2ccccc2)CC[C@]2(CC1)OCCc1c3cc(F)ccc3[nH]c12
therapeutic window ([1]; compared with Morphine): broader therapeutic window | effect on motor coordination and respiratory function ([1]; rats, doses higher than those required for inducing analgesia): affects neither motor coordination nor respiratory function | tolerability in clinical trials [2]: well tolerated | placebo corrected effect, therapeutic effectiveness of dose [3]: subtherapeutic | potency in chronic neuropathic versus acute nociceptive pain models ([4]; in comparison with selective MOP receptor agonists): more potent in models of chronic neuropathic than acute nociceptive pain | ED50, antinociceptive and antihypersensitive effects ([4]; rat models of acute and chronic pain, oral administration): 0.0251 mg/kg | ED50, antinociceptive and antihypersensitive effects ([4]; several rat models of acute and chronic pain, intravenous administration): 0.0005 to 0.0056 mg/kg
